Data taken from US5886026A, “Anti-angiogenic compositions and methods of use” (priority 1994, dated 1999).

Columns and labels:
[1] = Release from ELVAX:poly-l-lactic acid microspheres, 18 hours tumbling at 37° C.; assay type: physicochemical
[2] = Encapsulation of paclitaxel or baccatin in ELVAX:poly-l-lactic acid microspheres; assay type: physicochemical; conditions: for amount encapsulated: from 500 μg
Description: Microspheres are then prepared in a dissolution machine (Six-spindle dissolution tester, VanderKanp, Van Kell Industries Inc., U.S.A.) in triplicate at 200 rpm, 42° C., for 3 hours. Microspheres so prepared are washed twice in water and sized on the microscope.

For baccatin, the “released from the microspheres” value ([1]; fluorescence) was 60%, the “released from the microspheres” value ([1]; uv/vis) was 55% and the “encapsulated, % by weight of the polymer” value ([2]; fluorescence) was 1.7%. For the same substance, the “encapsulated, % of original weight” value ([2]; fluorescence) was 17%, the amount encapsulated ([2]; fluorescence, baccatin) was 83 ± 231 g and the “encapsulated, % by weight of the polymer” value ([2]; uv/vis) was 2%. For the same substance, the “encapsulated, % of original weight” value ([2]; uv/vis) was 20% and the amount encapsulated ([2]; uv/vis) was 0.0001 ± 1.5e-05 g.
